Target: T1, human PTH1 receptor (Homo sapiens, UniProt Q03431)
T1 sequence (Q03431 27-593): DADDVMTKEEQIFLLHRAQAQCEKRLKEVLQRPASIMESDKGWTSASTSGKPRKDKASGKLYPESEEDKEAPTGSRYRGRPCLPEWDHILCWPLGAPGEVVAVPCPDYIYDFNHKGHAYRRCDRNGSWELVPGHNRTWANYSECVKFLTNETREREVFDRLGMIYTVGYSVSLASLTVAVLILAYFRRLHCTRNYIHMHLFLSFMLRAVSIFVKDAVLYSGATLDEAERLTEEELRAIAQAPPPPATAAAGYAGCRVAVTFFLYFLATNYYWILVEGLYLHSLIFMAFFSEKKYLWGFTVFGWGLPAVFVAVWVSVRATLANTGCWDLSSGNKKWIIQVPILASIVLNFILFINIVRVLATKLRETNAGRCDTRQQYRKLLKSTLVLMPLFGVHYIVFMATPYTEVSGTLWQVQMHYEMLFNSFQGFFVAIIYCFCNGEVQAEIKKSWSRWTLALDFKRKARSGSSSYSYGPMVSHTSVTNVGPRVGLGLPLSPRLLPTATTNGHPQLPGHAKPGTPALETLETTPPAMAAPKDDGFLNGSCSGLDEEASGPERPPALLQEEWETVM
Assay: In vitro cAMP signal activity in HKRK-B7 cells (LLC-PK1 cells overexpressing the human PTH1 receptor)
Type: cell-based
Settings: 0.1 µM

Cc1cc(CC(=O)N(C)C)ccc1/C=C/S(=O)(=O)N1CCC2(CC1)N=C(C1CCC(C)CC1)NC2=O (stereo not shown) [Compound 987, N,N-Dimethyl-2-(3-methyl-4-{(E)-2-[2-(4-methyl-cyclohexyl)-4-oxo-1,3,8-triaza-spiro[4.5]dec-1-ene-8-sulfonyl]-vinyl}-phenyl)-acetamide]
cAMP production activity (%): 54%
